Results: patent US20210395313A1, “PEPTIDE PAC1 ANTAGONISTS” (AMGEN INC., priority 2017, published 2021)
pIC50: −log10 of the molar value.

Tests used:
rat PAC1 receptor = target: T1, rat PAC1 receptor (Rattus norvegicus, UniProt P32215); experiment: LANCE Ultra cAMP accumulation antagonist assay in RG-2 cells; format: cell-based;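 note: RG-2 rat glioma cells endogenously expressing PAC1, test peptide preincubated 30 min, then PAC1 agonist added at its EC80 for 15 min, cAMP accumulation read by LANCE Ultra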
T1 construct: SHSY-5Y (human neuroblastoma cell line) and RG-2 (rat glioma cell line) cells endogenously express human and rat PAC1 receptors, respectively; endogenous in cells; host or cells: RG-2 rat glioma cells
T1 sequence (P32215 20-523): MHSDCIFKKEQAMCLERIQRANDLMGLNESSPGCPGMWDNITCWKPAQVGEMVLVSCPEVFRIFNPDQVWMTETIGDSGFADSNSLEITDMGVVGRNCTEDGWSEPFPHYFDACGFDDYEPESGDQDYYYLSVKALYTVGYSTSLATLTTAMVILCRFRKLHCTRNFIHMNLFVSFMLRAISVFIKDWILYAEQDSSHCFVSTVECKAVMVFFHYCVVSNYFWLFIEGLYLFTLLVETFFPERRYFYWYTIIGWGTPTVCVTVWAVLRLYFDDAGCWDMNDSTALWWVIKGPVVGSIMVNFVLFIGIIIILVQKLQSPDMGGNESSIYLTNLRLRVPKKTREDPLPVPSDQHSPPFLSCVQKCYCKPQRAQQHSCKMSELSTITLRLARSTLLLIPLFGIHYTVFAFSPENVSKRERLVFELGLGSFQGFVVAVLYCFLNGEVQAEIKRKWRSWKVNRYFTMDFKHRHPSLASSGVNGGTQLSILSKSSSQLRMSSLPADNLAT

human PAC1 receptor = target: T2, human PAC1 receptor (Homo sapiens, UniProt P41586); experiment: LANCE Ultra cAMP accumulation antagonist assay in SHSY-5Y cells; format: cell-based;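 note: inhibition of cAMP accumulation evoked by PAC1 agonist at its EC80 in SHSY-5Y cells endogenously expressing receptor, 30 min preincubation then 15 min agonist, TR-FRET readout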
T2 construct: SHSY-5Y (human neuroblastoma cell line) and RG-2 (rat glioma cell line) cells endogenously express human and rat PAC1 receptors, respectively; endogenous in cells; host or cells: SHSY-5Y human neuroblastoma cells
T2 sequence (P41586 21-468): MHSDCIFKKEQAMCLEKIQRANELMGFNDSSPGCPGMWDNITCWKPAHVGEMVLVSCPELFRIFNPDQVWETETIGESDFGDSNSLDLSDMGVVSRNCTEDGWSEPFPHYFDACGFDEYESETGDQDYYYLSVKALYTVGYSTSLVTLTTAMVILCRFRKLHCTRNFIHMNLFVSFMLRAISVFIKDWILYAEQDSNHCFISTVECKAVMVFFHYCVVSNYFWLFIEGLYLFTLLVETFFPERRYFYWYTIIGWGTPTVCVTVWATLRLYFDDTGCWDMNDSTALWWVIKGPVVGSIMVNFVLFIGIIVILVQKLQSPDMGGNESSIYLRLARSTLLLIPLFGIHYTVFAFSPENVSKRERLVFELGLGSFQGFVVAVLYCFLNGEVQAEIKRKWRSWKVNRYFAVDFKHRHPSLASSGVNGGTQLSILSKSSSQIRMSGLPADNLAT

| Structure (SMILES) | pIC50 (rat PAC1 receptor) | pIC50 (human PAC1 receptor) |
| --- | --- | --- |
| CC[C@H](C)[C@H](NC(=O)[C@H](C)NC(=O)[C@H](CCCCN)NC(=O)[C@H](CCCNC(=N)N)NC(=O)[C@H](Cc1ccccc1)NC(=O)[C@H](CCC(N)=O)NC(=O)[C@@H]1CSSC[C@H](N)C(=O)N[C@@H](CC(=O)O)C(=O)N[C@@H](C)C(=O)N[C@@H]([C@@H](C)O)C(=O)N1)C(=O)N[C@@H](CC(=O)O)C(=O)N[C@@H](CC(=O)O)C(=O)N[C@H]1CSSC[C@@H](C(=O)N[C@@H](CCSC)C(=O)N[C@@H](CCCCN)C(=O)N[C@@H](CCC(N)=O)C(=O)N[C@@H](CCCCN)C(=O)N[C@@H](CCCCN)C(=O)N[C@@H](CCCCN)C(=O)N[C@@H](CCC(=O)O)C(=O)N[C@@H](Cc2ccccc2)C(=O)N[C@@H](CCCCN)C(=O)N[C@@H](C)C(=O)NCC(N)=O)NC(=O)C(C)(C)NC(=O)[C@H](CCCCN)NC(=O)[C@H](Cc2ccccc2)NC(=O)[C@H](CCCCN)NC(=O)[C@H](CO)NC(=O)CNC(=O)[C@@H]2CCCN2C(=O)[C@H](C(C)C)NC(=O)[C@H](CC(N)=O)NC(=O)[C@H](CO)NC(=O)[C@H](Cc2c[nH]cn2)NC(=O)[C@H](Cc2c[nH]cn2)NC(=O)[C@H](CCC(=O)O)NC(=O)[C@H](CCC(N)=O)NC(=O)[C@H](CCCCN)NC(=O)[C@H](CCC(N)=O)NC1=O [compound 97] | 7.00 to 9.00 | 7.00 to 9.00 |
| CC[C@H](C)[C@H](NC(=O)[C@H](C)NC(=O)[C@H](CCCCN)NC(=O)[C@H](CCCNC(=N)N)NC(=O)[C@H](Cc1ccccc1)NC(=O)[C@H](CCC(N)=O)NC(=O)[C@@H]1CSSC[C@H](N)C(=O)N[C@@H](CC(=O)O)C(=O)N[C@@H](C)C(=O)N[C@@H]([C@@H](C)O)C(=O)N1)C(=O)N[C@@H](CC(=O)O)C(=O)N[C@@H](CC(=O)O)C(=O)N[C@H]1CSSC[C@@H](C(=O)N[C@@H](CCSC)C(=O)N[C@@H](CCCCN)C(=O)N[C@@H](CCC(N)=O)C(=O)N[C@@H](CCCCN)C(=O)N[C@@H](CCCCN)C(=O)N[C@@H](CCCCN)C(=O)N[C@@H](CCC(=O)O)C(=O)N[C@@H](Cc2ccccc2)C(=O)N[C@@H](CCCCN)C(N)=O)NC(=O)[C@H](CCC(=O)O)NC(=O)[C@H](CCCCN)NC(=O)[C@H](Cc2ccccc2)NC(=O)[C@H](C(C)C)NC(=O)[C@H](CO)NC(=O)[C@H](CC(N)=O)NC(=O)CNC(=O)[C@@H]2CCCN2C(=O)[C@H](C(C)C)NC(=O)[C@H](CC(N)=O)NC(=O)[C@H](CO)NC(=O)[C@H](Cc2c[nH]cn2)NC(=O)[C@H](Cc2c[nH]cn2)NC(=O)[C@H](C)NC(=O)C(C)(C)NC(=O)[C@H](CCCCN)NC(=O)[C@H](CCC(N)=O)NC1=O [compound 286] | 7.00 to 9.00 | 7.00 to 9.00 |
| CCCC[C@H](NC(=O)[C@@H]1CSSC[C@H](NC(=O)[C@H](CC(=O)O)NC(=O)[C@H](CC(=O)O)NC(=O)[C@@H](NC(=O)[C@H](C)NC(=O)[C@H](CCCCN)NC(=O)[C@H](CCCNC(=N)N)NC(=O)[C@H](Cc2ccccc2)NC(=O)[C@H](CCC(N)=O)NC(=O)[C@@H]2CSSC[C@H](N)C(=O)N[C@@H](CC(=O)O)C(=O)N[C@@H](C)C(=O)N[C@@H]([C@@H](C)O)C(=O)N2)[C@@H](C)CC)C(=O)N[C@@H](CCC(N)=O)C(=O)N[C@@H](CCCCN)C(=O)N[C@@H](CCC(N)=O)C(=O)N[C@@H](C)C(=O)N[C@@H](Cc2c[nH]cn2)C(=O)N[C@@H](Cc2c[nH]cn2)C(=O)N[C@@H](CO)C(=O)N[C@@H](CO)C(=O)N[C@@H](Cc2ccccc2)C(=O)N[C@@H](CCCCN)C(=O)NC(C)(C)C(=O)N1)C(=O)N[C@@H](CCCCN)C(=O)N[C@@H](CCC(N)=O)C(=O)N[C@@H](CCCCN)C(=O)N[C@@H](CCCCN)C(=O)N[C@@H](CCCCN)C(=O)N[C@@H](CCC(=O)O)C(=O)N[C@@H](Cc1ccccc1)C(=O)N[C@@H](CCCCN)C(N)=O [compound 217] | 7.00 to 9.00 | 7.00 to 9.00 |
| CC[C@H](C)[C@H](NC(=O)[C@H](C)NC(=O)[C@H](CCCCN)NC(=O)[C@H](CCCNC(=N)N)NC(=O)[C@H](Cc1ccccc1)NC(=O)[C@H](CCC(N)=O)NC(=O)[C@@H]1CSSC[C@H](NC(C)=O)C(=O)N[C@@H](CC(=O)O)C(=O)N[C@@H](C)C(=O)N[C@@H]([C@@H](C)O)C(=O)N1)C(=O)N[C@@H](CC(=O)O)C(=O)N[C@@H](CC(=O)O)C(=O)N[C@H]1CSSC[C@@H](C(=O)N[C@@H](CCSC)C(=O)N[C@@H](CCCCN)C(=O)N[C@@H](CCC(N)=O)C(=O)N[C@@H](CCCCN)C(=O)N[C@@H](CCCCN)C(=O)N[C@@H](CCCCN)C(=O)N[C@@H](CCC(=O)O)C(=O)N[C@@H](Cc2ccccc2)C(=O)N[C@@H](CCCCN)C(=O)N[C@@H](C)C(=O)NCC(N)=O)NC(=O)C(C)(C)NC(=O)[C@H](CCCCN)NC(=O)[C@H](Cc2ccccc2)NC(=O)[C@H](CO)NC(=O)CNC(=O)[C@@H]2CCCN2C(=O)[C@H](C(C)C)NC(=O)[C@H](CC(N)=O)NC(=O)[C@H](CO)NC(=O)[C@H](Cc2c[nH]cn2)NC(=O)[C@H](Cc2c[nH]cn2)NC(=O)[C@H](C)NC(=O)[C@H](CCC(N)=O)NC(=O)[C@H](CCCCN)NC(=O)[C@H](CC(=O)O)NC1=O [compound 239] | 9.00 to 11.00 | 7.00 to 9.00 |
| CC[C@H](C)[C@H](NC(=O)[C@H](C)NC(=O)[C@H](CCCCN)NC(=O)[C@H](CCCNC(=N)N)NC(=O)[C@H](Cc1ccccc1)NC(=O)[C@H](CCC(N)=O)NC(=O)[C@@H]1CSSC[C@H](N)C(=O)N[C@@H](CC(=O)O)C(=O)N[C@@H](C)C(=O)N[C@@H]([C@@H](C)O)C(=O)N1)C(=O)N[C@@H](CC(=O)O)C(=O)N[C@@H](CC(=O)O)C(=O)N[C@H]1CSSC[C@@H](C(=O)N[C@@H](CCSC)C(=O)N[C@@H](CCCCN)C(=O)N[C@@H](CCC(N)=O)C(=O)N[C@@H](CCCCN)C(=O)N[C@@H](CCCCN)C(=O)N[C@@H](CCCCN)C(=O)N[C@@H](CCC(=O)O)C(=O)N[C@@H](Cc2ccccc2)C(=O)N[C@@H](CCCCN)C(N)=O)NC(=O)C(C)(C)NC(=O)[C@H](CCCCN)NC(=O)[C@H](Cc2ccccc2)NC(=O)[C@H](C(C)C)NC(=O)[C@H](CO)NC(=O)[C@H](CO)NC(=O)[C@H](Cc2c[nH]cn2)NC(=O)[C@H](Cc2c[nH]cn2)NC(=O)[C@H](C)NC(=O)[C@H](CCC(N)=O)NC(=O)[C@H](CCCCN)NC(=O)[C@H](CC(=O)O)NC1=O [compound 245] | 9.00 to 11.00 | 7.00 to 9.00 |
| CC[C@H](C)[C@H](NC(=O)[C@H](C)NC(=O)[C@H](CCCCN)NC(=O)[C@H](CCCNC(=N)N)NC(=O)[C@H](Cc1ccccc1)NC(=O)[C@H](CCC(N)=O)NC(=O)[C@@H]1CSSC[C@H](NC(C)=O)C(=O)N[C@@H](CC(=O)O)C(=O)N[C@@H](C)C(=O)N[C@@H]([C@@H](C)O)C(=O)N1)C(=O)N[C@@H](CC(=O)O)C(=O)N[C@@H](CC(=O)O)C(=O)N[C@H]1CSSC[C@@H](C(=O)N[C@@H](CCSC)C(=O)N[C@@H](CCCCN)C(=O)N[C@@H](CCC(N)=O)C(=O)N[C@@H](CCCCN)C(=O)N[C@@H](CCCCN)C(=O)N[C@@H](CCCCN)C(=O)N[C@@H](CCC(=O)O)C(=O)N[C@@H](Cc2ccccc2)C(=O)N[C@@H](CCCCN)C(=O)N[C@@H](C)C(=O)NCC(N)=O)NC(=O)C(C)(C)NC(=O)[C@H](CCCCN)NC(=O)[C@H](Cc2ccccc2)NC(=O)[C@H](C(C)C)NC(=O)[C@H](CO)NC(=O)CNC(=O)[C@@H]2CCCN2C(=O)[C@H](C(C)C)NC(=O)[C@H](CC(N)=O)NC(=O)[C@H](CO)NC(=O)[C@H](Cc2c[nH]cn2)NC(=O)[C@H](Cc2c[nH]cn2)NC(=O)[C@H](C)NC(=O)[C@H](CCC(N)=O)NC(=O)[C@H](CCCCN)NC(=O)[C@H](CC(=O)O)NC1=O [compound 236] | 9.00 to 11.00 | 9.00 to 11.00 |
| CC[C@H](C)[C@H](NC(=O)[C@H](C)NC(=O)[C@H](CCCCN)NC(=O)[C@H](CCCNC(=N)N)NC(=O)[C@H](Cc1ccccc1)NC(=O)[C@H](CCC(N)=O)NC(=O)[C@@H]1CSSC[C@H](N)C(=O)N[C@@H](CC(=O)O)C(=O)N[C@@H](C)C(=O)N[C@@H]([C@@H](C)O)C(=O)N1)C(=O)N[C@@H](CC(=O)O)C(=O)N[C@@H](CC(=O)O)C(=O)N[C@H]1CSSC[C@@H](C(=O)N[C@@H](CCSC)C(=O)N[C@@H](CCCCN)C(=O)N[C@@H](CCC(N)=O)C(=O)N[C@@H](CCCCN)C(=O)N[C@@H](CCCCN)C(=O)N[C@@H](CCCCN)C(=O)N[C@@H](CCC(=O)O)C(=O)N[C@@H](Cc2ccccc2)C(=O)N[C@@H](CCCCN)C(=O)N[C@@H](C)C(=O)NCC(N)=O)NC(=O)C(C)(C)NC(=O)[C@H](CCCCN)NC(=O)[C@H](Cc2ccccc2)NC(=O)[C@H](CO)NC(=O)CNC(=O)[C@@H]2CCCN2C(=O)[C@H](C(C)C)NC(=O)[C@H](CC(N)=O)NC(=O)[C@H](CO)NC(=O)[C@H](Cc2c[nH]cn2)NC(=O)[C@H](Cc2c[nH]cn2)NC(=O)[C@H](C)NC(=O)[C@H](CCC(N)=O)NC(=O)[C@H](CCCCN)NC(=O)[C@H](CCC(N)=O)NC1=O [compound 216] | 9.00 to 11.00 | 7.00 to 9.00 |
